Measurements as given in ChEMBL document CHEMBL4665668, “Design and development of molecular hybrids of 2-pyridylpiperazine and 5-phenyl-1,3,4-oxadiazoles as potential multifunctional agents to treat Alzheimer's disease” (Eur J Med Chem, 2019).

The chains behind the UniProt entries cited, without tags or fusion partners.
UniProt P06276, whole entry: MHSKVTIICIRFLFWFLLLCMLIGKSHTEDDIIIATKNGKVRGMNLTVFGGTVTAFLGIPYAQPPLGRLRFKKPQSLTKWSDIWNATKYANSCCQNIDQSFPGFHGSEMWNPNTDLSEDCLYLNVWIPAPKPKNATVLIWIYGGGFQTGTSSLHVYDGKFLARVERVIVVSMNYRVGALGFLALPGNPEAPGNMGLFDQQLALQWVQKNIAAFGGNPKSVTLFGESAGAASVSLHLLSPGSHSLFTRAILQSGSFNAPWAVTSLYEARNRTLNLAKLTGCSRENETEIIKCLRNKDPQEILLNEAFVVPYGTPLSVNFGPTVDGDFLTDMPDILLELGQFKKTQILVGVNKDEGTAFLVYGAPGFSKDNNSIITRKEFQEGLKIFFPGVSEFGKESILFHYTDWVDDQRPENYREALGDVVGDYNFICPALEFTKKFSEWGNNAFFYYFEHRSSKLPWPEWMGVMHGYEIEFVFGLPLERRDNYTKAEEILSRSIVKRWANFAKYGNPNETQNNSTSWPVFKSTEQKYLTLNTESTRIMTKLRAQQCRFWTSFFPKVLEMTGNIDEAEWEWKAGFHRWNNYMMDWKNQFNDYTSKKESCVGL

Biological target: Cholinesterase (Homo sapiens, UniProt P06276)
Test: Inhibition of human serum BChE using butyrylthiocholine iodide as substrate preincubated for 10 mins followed by substrate addition by Ellman's method
Assay type: cell-free

CCN(C)C(=O)Oc1cccc([C@H](C)N(C)C)c1 [RIVASTIGMINE]
IC50: 1220 nM
